Values quoted from earlier work in patent publication US9795131B2, “Sophorolactone compositions and uses thereof” (ECOVER CO-ORDINATION CENTER N.V., priority 2011, dated 2017).

Settings: OK / NOK; cited from earlier work

Substance: Glycerin formal
- GRAS status: NOK
